Measured values from US11274118B2 (priority 2012, dated 2022).

Tested on: cerebral edema in rats following bilateral cortical contusion
Experiment: Cerebral edema assay after bilateral cortical contusion
Assay type: in vivo, rat
Conditions: i.v. at 4 mg/kg

## CC(=O)[C@H]1CC[C@H]2[C@@H]3CCC4=C/C(=N/O)CC[C@]4(C)[C@H]3CC[C@]12C [Compound 2, 1-((8S,9S,10R,13S,14S,17S,E)-3-(Hydroxyimino)-10,13-dimethyl-2,3,6,7,8,9,10,11,12,13,14,15,16,17-tetradecahydro-1H-cyclopenta[a]phenanthren-17-yl)ethanone]
  therapeutic benefit in model of rat edema (TBI induced): comparable to progesterone
